Measured values as given in patent US10287286B2, “Compounds” (Takeda Pharmaceutical Company Limited, priority 2015, dated 2019).

Amino acid sequences for entries named in this document (tags omitted).
UniProt Q96KS0, whole entry: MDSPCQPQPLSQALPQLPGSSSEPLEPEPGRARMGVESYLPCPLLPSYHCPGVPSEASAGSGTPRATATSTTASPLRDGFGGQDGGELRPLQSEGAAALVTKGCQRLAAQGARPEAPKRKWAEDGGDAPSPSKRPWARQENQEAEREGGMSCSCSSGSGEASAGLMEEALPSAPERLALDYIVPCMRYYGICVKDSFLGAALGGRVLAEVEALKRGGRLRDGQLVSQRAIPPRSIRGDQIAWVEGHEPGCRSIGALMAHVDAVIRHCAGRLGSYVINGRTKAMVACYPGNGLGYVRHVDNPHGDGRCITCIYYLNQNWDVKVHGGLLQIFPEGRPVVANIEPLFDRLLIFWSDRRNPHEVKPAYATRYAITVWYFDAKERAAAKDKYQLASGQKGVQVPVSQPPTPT

Target: PHD1 enzyme (residues 1-407) (Homo sapiens (Human), UniProt Q96KS0)
Assay: PHD1 Enzyme Assay (UPLC-MS detection of hydroxylated peptide product)
Format: biochemical
Settings: 20 nM, 60 min pre-incubation at room temperature

| IC50 [nM] | Structure (SMILES) |
| --- | --- |
| 248 | N#Cc1ccc(-c2cc(NC(=O)C3CCCO3)cc3ncnn23)cc1F (stereo in doubt) [Example 160, (2R)-N-[5-(4-cyano-3-fluorophenyl)-[1,2,4]triazolo[1,5-a]pyridin-7-yl]oxolane-2-carboxamide] |
| 307 | Fc1cc(Cl)ccc1-c1cccc2ncnn12 [Example 9, 5-(4-chloro-2-fluorophenyl)-[1,2,4]triazolo[1,5-a]pyridine] |
| 452 | Fc1cc(-c2cccc3ncnn23)ccc1Cl [Example 12, 5-(4-chloro-3-fluorophenyl)-[1,2,4]triazolo[1,5-a]pyridine] |
| 3940 | N#Cc1ccc(-c2nccc3ncnn23)cc1 [Example 16, 4-{[1,2,4]triazolo[1,5-c]pyrimidin-5-yl}benzonitrile] |
| 2160 | N#Cc1ccc(-c2nccc3ncnn23)cc1F [Example 17, 2-fluoro-4-{[1,2,4]triazolo[1,5-c]pyrimidin-5-yl}benzonitrile] |
| 665 | Cc1ccc2ncnn2c1-c1ccc(C#N)c(F)c1 [Example 19, 2-fluoro-4-{6-methyl-[1,2,4]triazolo[1,5-a]pyridin-5-yl}benzonitrile] |
| 1960 | Cc1nc(C#N)ccc1-c1cc(Cl)cc2ncnn12 [Example 20, 5-{7-chloro-[1,2,4]triazolo[1,5-a]pyridin-5-yl}-6-methylpyridine-2-carbonitrile] |
| 99 | N#Cc1ncc(-c2cccc3ncnn23)cc1F [Example 24, 3-fluoro-5-{[1,2,4]triazolo[1,5-a]pyridin-5-yl}pyridine-2-carbonitrile] |
| 56 | Cc1cc(C#N)ncc1-c1cccc2ncnn12 [Example 25, 4-methyl-5-{[1,2,4]triazolo[1,5-a]pyridin-5-yl}pyridine-2-carbonitrile] |
| 93 | Cc1nc(C#N)ccc1-c1cccc2ncnn12 [Example 28, 6-methyl-5-{[1,2,4]triazolo[1,5-a]pyridin-5-yl}pyridine-2-carbonitrile] |
| 506 | Cc1cc(C#N)cnc1-c1cccc2ncnn12 [Example 32, 5-methyl-6-{[1,2,4]triazolo[1,5-a]pyridin-5-yl}pyridine-3-carbonitrile] |
| 67 | N#Cc1ccc(-c2cccc3ncnn23)c(Br)c1 [Example 36, 3-bromo-4-{[1,2,4]triazolo[1,5-a]pyridin-5-yl}benzonitrile] |
| 223 | N#Cc1ccc(-c2cc(CO)cc3ncnn23)cc1 [Example 39, 4-(7-(hydroxymethyl)-[1,2,4]triazolo[1,5-a]pyridin-5-yl)benzonitrile] |
| 323 | COC(=O)c1cc(-c2ccc(C#N)cc2)n2ncnc2c1 [Example 40, Methyl 5-(4-cyanophenyl)-[1,2,4]triazolo[1,5-a]pyridine-7-carboxylate] |
| 459 | N#Cc1ccc(-c2cc(C(=O)O)cc3ncnn23)cc1 [Example 41, 5-(4-cyanophenyl)-[1,2,4]triazolo[1,5-a]pyridine-7-carboxylic acid] |
| 138 | N#Cc1ccc(-c2cc(C3CC3)cc3ncnn23)cc1 [Example 42, 4-{7-Cyclopropyl-[1,2,4]triazolo[1,5-a]pyridin-5-yl}benzonitrile] |
| 1840 | N#Cc1ccc(-c2cc(C(=O)N3CCCC3)cc3ncnn23)cc1 [Example 43, 4-[7-(pyrrolidine-1-carbonyl)-[1,2,4]triazolo[1,5-a]pyridin-5-yl]benzonitrile] |
| 1760 | COCCNC(=O)c1cc(-c2ccc(C#N)cc2)n2ncnc2c1 [Example 44, 5-(4-cyanophenyl)-N-(2-methoxyethyl)-[1,2,4]triazolo[1,5-a]pyridine-7-carboxamide] |
| 755 | C[C@H]1CCCN1C(=O)c1cc(-c2ccc(C#N)cc2)n2ncnc2c1 [Example 45, 4-{7-[(2S)-2-methylpyrrolidine-1-carbonyl]-[1,2,4]triazolo[1,5-a]pyridin-5-yl}benzonitrile] |
| 1950 | CC1CCN(C(=O)c2cc(-c3ccc(C#N)cc3)n3ncnc3c2)C1 (stereo not shown) [Example 46, 4-[7-(3-methylpyrrolidine-1-carbonyl)-[1,2,4]triazolo[1,5-a]pyridin-5-yl]benzonitrile] |
| 470 | COc1cccc(NC(=O)c2cc(-c3ccc(C#N)cc3)n3ncnc3c2)c1 [Example 47, 5-(4-cyanophenyl)-N-(3-methoxyphenyl)-[1,2,4]triazolo[1,5-a]pyridine-7-carboxamide] |
| 206 | N#Cc1ccc(-c2cc(C(=O)NCCc3cccc(Cl)c3)cc3ncnn23)cc1 [Example 48, N-[2-(3-chlorophenyl)ethyl]-5-(4-cyanophenyl)-[1,2,4]triazolo[1,5-a]pyridine-7-carboxamide] |
| 366 | N#Cc1ccc(-c2cc(C(=O)NCCc3ccc(Cl)cc3)cc3ncnn23)cc1 [Example 49, N-[2-(4-chlorophenyl)ethyl]-5-(4-cyanophenyl)-[1,2,4]triazolo[1,5-a]pyridine-7-carboxamide] |

| IC50 [nM] | Structure (SMILES) |
| --- | --- |
| 927 | COc1cccc(CCNC(=O)c2cc(-c3ccc(C#N)cc3)n3ncnc3c2)c1 [Example 50, 5-(4-cyanophenyl)-N-[2-(3-methoxyphenyl)ethyl]-[1,2,4]triazolo[1,5-a]pyridine-7-carboxamide] |
| 978 | N#Cc1ccc(-c2cc(C(=O)Nc3cccc(Cl)c3)cc3ncnn23)cc1 [Example 51, N-(3-chlorophenyl)-5-(4-cyanophenyl)-[1,2,4]triazolo[1,5-a]pyridine-7-carboxamide] |
| 531 | N#Cc1ccc(-c2cc(C(=O)Nc3ccc(Cl)cc3)cc3ncnn23)cc1 [Example 52, N-(4-chlorophenyl)-5-(4-cyanophenyl)-[1,2,4]triazolo[1,5-a]pyridine-7-carboxamide] |
| 387 | Cc1ccc(NC(=O)c2cc(-c3ccc(C#N)cc3)n3ncnc3c2)nn1 [Example 53, 5-(4-cyanophenyl)-N-(6-methylpyridazin-3-yl)-[1,2,4]triazolo[1,5-a]pyridine-7-carboxamide] |
| 730 | Cc1ncc(NC(=O)c2cc(-c3ccc(C#N)cc3)n3ncnc3c2)cn1 [Example 54, 5-(4-cyanophenyl)-N-(2-methylpyrimidin-5-yl)-[1,2,4]triazolo[1,5-a]pyridine-7-carboxamide] |
| 307 | N#Cc1ccc(-c2cc(C(=O)NCc3cccc(Cl)c3)cc3ncnn23)cc1 [Example 55, N-[(3-chlorophenyl)methyl]-5-(4-cyanophenyl)-[1,2,4]triazolo[1,5-a]pyridine-7-carboxamide] |
| 167 | N#Cc1ccc(-c2cc(C(=O)NCc3ccc(Cl)cc3)cc3ncnn23)cc1 [Example 56, N-[(4-chlorophenyl)methyl]-5-(4-cyanophenyl)-[1,2,4]triazolo[1,5-a]pyridine-7-carboxamide] |
| 445 | COc1cccc(CNC(=O)c2cc(-c3ccc(C#N)cc3)n3ncnc3c2)c1 [Example 57, 5-(4-cyanophenyl)-N-[(3-methoxyphenyl)methyl]-[1,2,4]triazolo[1,5-a]pyridine-7-carboxamide] |
| 145 | N#Cc1ccc(-c2cc(C(N)=O)cc3ncnn23)cc1 [Example 58, 5-(4-cyanophenyl)-[1,2,4]triazolo[1,5-a]pyridine-7-carboxamide] |
| 269 | CNC(=O)c1cc(-c2ccc(C#N)cc2)n2ncnc2c1 [Example 59, 5-(4-cyanophenyl)-N-methyl-[1,2,4]triazolo[1,5-a]pyridine-7-carboxamide] |
| 377 | CCCCNC(=O)c1cc(-c2ccc(C#N)cc2)n2ncnc2c1 [Example 60, N-butyl-5-(4-cyanophenyl)-[1,2,4]triazolo[1,5-a]pyridine-7-carboxamide] |
| 392 | Cn1cnc(CNC(=O)c2cc(-c3ccc(C#N)cc3)n3ncnc3c2)c1 [Example 61, 5-(4-cyanophenyl)-N-[(1-methyl-1H-imidazol-4-yl)methyl]-[1,2,4]triazolo[1,5-a]pyridine-7-] |
| 490 | Cn1cc(CNC(=O)c2cc(-c3ccc(C#N)cc3)n3ncnc3c2)cn1 [Example 62] |
| 714 | CC(C)(C)OC(=O)N1CC(CNC(=O)c2cc(-c3ccc(C#N)cc3)n3ncnc3c2)C1 [Example 63, tert-butyl 3-({[5-(4-cyanophenyl)-[1,2,4]triazolo[1,5-a]pyridin-7-yl]formamido}methyl)azetidine-1-carboxylate] |
| 669 | N#Cc1ccc(-c2cc(C(=O)NCCN3CCOCC3)cc3ncnn23)cc1 [Example 64, 5-(4-cyanophenyl)-N-[2-(morpholin-4-yl)ethyl]-[1,2,4]triazolo[1,5-a]pyridine-7-carboxamide] |
| 551 | CN1CCN(CCNC(=O)c2cc(-c3ccc(C#N)cc3)n3ncnc3c2)CC1 [Example 65, 5-(4-cyanophenyl)-N-[2-(4-methylpiperazin-1-yl)ethyl]-[1,2,4]triazolo[1,5-a]pyridine-7-carboxamide] |
| 613 | CC(C)NC(=O)c1cc(-c2ccc(C#N)cc2)n2ncnc2c1 [Example 66, 5-(4-cyanophenyl)-N-(propan-2-yl)-[1,2,4]triazolo[1,5-a]pyridine-7-carboxamide] |
| 103 | N#Cc1ccc(-c2cc(C(=O)NCC3CC3)cc3ncnn23)cc1 [Example 67, 5-(4-cyanophenyl)-N-(cyclopropylmethyl)-[1,2,4]triazolo[1,5-a]pyridine-7-carboxamide] |
| 1880 | N#Cc1ccc(-c2cc(C(=O)NC3COC3)cc3ncnn23)cc1 [Example 68, 5-(4-cyanophenyl)-N-(oxetan-3-yl)-[1,2,4]triazolo[1,5-a]pyridine-7-carboxamide] |
| 1110 | N#Cc1ccc(-c2cc(C(=O)NCC3COC3)cc3ncnn23)cc1 [Example 69, 5-(4-cyanophenyl)-N-(oxetan-3-ylmethyl)-[1,2,4]triazolo[1,5-a]pyridine-7-carboxamide] |
| 607 | CN1CC(NC(=O)c2cc(-c3ccc(C#N)cc3)n3ncnc3c2)C1 [Example 70, 5-(4-cyanophenyl)-N-(1-methylazetidin-3-yl)-[1,2,4]triazolo[1,5-a]pyridine-7-carboxamide] |
| 904 | N#Cc1ccc(-c2cc(C(=O)NCCO)cc3ncnn23)cc1 [Example 71, 5-(4-cyanophenyl)-N-(2-hydroxyethyl)-[1,2,4]triazolo[1,5-a]pyridine-7-carboxamide] |
| 5090 | CN(C)CCNc1cc(-c2ccc(C#N)cc2)n2ncnc2n1 [Example 72, 4-(5-{[2-(dimethylamino)ethyl]amino}-[1,2,4]triazolo[1,5-a]pyrimidin-7-yl)benzonitrile] |
